Bioassay records as filed in PubChem.
Only some compounds are listed: those with a hit (about 1.7% of all), similar ones and a draw of the others.
CAL PDZ FP-1: CAL PDZ (human) peptide binding inhibition. Q9HD26. purified CAL PDZ, TMR-peptide fluorescence polarization, 1 h. inhibition, % at 24.9 µM. 300,000 tested, 0.92% active. AID 602252;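 active = mean inhibition of at least 30% with at least half of replicates also reaching 30%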;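 note: 0% = DMSO neutral control and 100% = excess unlabeled competitor peptide PRC23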
dFosB act: mouse delta FosB homodimer activation | P13346 | 340,000 tested, 0.99% active | purified delta FosB, TAMRA-CDK5 oligo fluorescence polarization; percent of positive-control signal above neutral wells | activation, % at 25 µM | AID 493131;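 active = mean activation above about 17%, with every replicate also reaching it, limit read from the data, passing the limit was not always enough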
Dyrk1A ADPGlo: inhibitors of rat Dyrk1A kinase. Q63470. 310,000 tested, 0.43% active. ADP-Glo luminescence, NFATc1 peptide. inhibition, % at 12.5 µM; in the data active = inhibition above about 50%;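 note: plate controls were vehicle with enzyme for no effect and no enzyme for full effect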
CDK5 inh: CDK5/p35 (human) kinase inhibition. Q00535+Q15078. Recombinant CDK5/p35, ADP-Glo luminescence, 60 min. inhibition, % at 10 µM. 330,000 tested, 0.01% active. AID 488839;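 active = highest replicate inhibition of at least 50% and at least 75% of replicates reaching 50%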;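 note: plate controls were DMSO neutral control for no effect and GW8510 at 10 µM for full effect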
CAL PDZ FP-2: inhibitors of human CAL PDZ peptide binding | purified CAL PDZ, TMR-peptide fluorescence polarization, 1 h | inhibition, % at 20 µM | 330,000 tested, 0.02% active;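 active = highest replicate inhibition of at least 40%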;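 note: plate controls were DMSO neutral control wells for no effect and unlabeled competitor peptide control wells for full effect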
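Test system: tagged CAL PDZ domain / Buffer or medium: sodium phosphate/NaCl buffer pH 7.4 with TCEP, IgG, Thesit / Reagent: TMR-labelled reporter peptide T*-PRC34 bound in PDZ groove / Compound dosing: single point, 20 µM / Schedule: 1 h incubation at room temperature before polarization reading / Technique: fluorescence polarization (mP) / Benchmarks: unlabelled peptide, DMSO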
UUG fidelity: modulators of start codon recognition fidelity in yeast; AID 602363; activity score, % at 18.7 µM; S. cerevisiae UUG-firefly luciferase reporter, luminescence/redox ratio; 0.13% of 350,000 active;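 active = replicate mean at a twofold rise or more, about +100% in these data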;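 note: firefly luciferase made from a UUG start codon reports start codon fidelity; reporter light over untreated wells divided by growth signal over untreated wells; some hits fall short of that in this replicate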
An asterisk follows results filed as active.

Screening COCCNC(=O)C[C@@H]1C[C@H]2c3cc(NC(=O)c4ccc5c(c4)OCO5)ccc3O[C@H]2[C@H](CO)O1 returned UUG fidelity 15.0.
For Cc1cccc(OCC(=O)Nc2ccc(N3CCCC3)cc2)c1C the results were CAL PDZ FP-1 -0.2, dFosB act 47.4*, Dyrk1A ADPGlo 0.3, CDK5 inh -3.2, CAL PDZ FP-2 -1.6 and UUG fidelity -18.9.
For Cc1cc(C)cc(OCC(=O)Nc2ccc(N3CCCC3)cc2)c1 the results were CAL PDZ FP-1 -2.4, dFosB act 64.6*, Dyrk1A ADPGlo 3.4, CDK5 inh 5.8, CAL PDZ FP-2 -2.3 and UUG fidelity 2.1.
COc1ccccc1OCC(=O)Nc1ccc(N2CCCCC2)cc1 was read as dFosB act -2.8, Dyrk1A ADPGlo -4.7, CDK5 inh 1.6 and CAL PDZ FP-2 -0.1.
CN(C[C@@H]1[C@@H](c2ccccc2)[C@H](CO)N1C(=O)c1ccccc1)C(=O)C1CC1 was read as UUG fidelity 16.6.
O=C(N/N=C/c1sc(=O)n(Cc2ccc(Br)cc2)c1Cl)c1ccco1 was read as CAL PDZ FP-1 -1.3, dFosB act 35.5*, Dyrk1A ADPGlo -1.7, CDK5 inh 0.4 and CAL PDZ FP-2 -0.1.
For C[C@@H]1CN([C@H](C)CO)C(=O)c2cc(NC(=O)NC3CCCCC3)ccc2O[C@H]1CN(C)Cc1ccc(C(=O)O)cc1 the results were UUG fidelity 18.1.
Cc1ccc(S(=O)(=O)N[C@H]2CC[C@H](CCNC(=O)CN3CCOCC3)O[C@H]2CO)cc1 was read as UUG fidelity 0.1.
Screening O=Cc1cc(N=Nc2ccc(S(=O)(=O)O)cc2)ccc1O returned CAL PDZ FP-1 -4.7, dFosB act -6.1, Dyrk1A ADPGlo 1.1, CDK5 inh -2.0 and CAL PDZ FP-2 0.5.
O=S(=O)(O)c1ccc(N=NNc2ccc(Br)cc2)cc1 was read as CAL PDZ FP-1 52.2*, dFosB act -3.9, Dyrk1A ADPGlo 25.2, CDK5 inh 2.0, CAL PDZ FP-2 -1.0 and UUG fidelity -16.8.
Screening CN1C(=O)c2cc(NC(=O)c3ccc(F)cc3)ccc2OC[C@@H]2O[C@@H](CC(=O)NCC3CCCCC3)CC[C@H]21 returned UUG fidelity 28.6.
C[C@@H]1CN([C@H](C)CO)C(=O)Cc2cc(NC(=O)C3CC3)ccc2O[C@H]1CN(C)S(=O)(=O)c1cn(C)cn1 was read as UUG fidelity 2.1.
`Cc1ccc(Cn2ccc(NC(=O)c3cc(-c4ccccc4)on3)n2)cc1` gave CAL PDZ FP-1 -7.3, dFosB act 10.2, Dyrk1A ADPGlo 5.6, CDK5 inh 2.4, CAL PDZ FP-2 -3.0 and UUG fidelity -8.2.
Screening COc1cccc(-c2cc(C(=O)Nc3ccn(Cc4ccc(C)cc4)n3)no2)c1 returned CAL PDZ FP-1 38.1*, dFosB act 7.9, Dyrk1A ADPGlo -6.6, CDK5 inh 2.6 and UUG fidelity -5.6.
COCC(=O)N(C)C[C@@H]1Oc2ncc(C#C[C@@H](C)O)cc2C(=O)N([C@@H](C)CO)C[C@@H]1C was read as UUG fidelity -8.2.
COc1ccccc1N(C(C)=O)c1nc(C)cc(C)c1C#N was read as CAL PDZ FP-1 30.9*, dFosB act 1.5, Dyrk1A ADPGlo 5.7, CDK5 inh 0.5, CAL PDZ FP-2 -0.8 and UUG fidelity -7.6.
Screening COc1ccc(Cl)cc1N(C(C)=O)c1nc(C)cc(C)c1C#N returned dFosB act -1.9, Dyrk1A ADPGlo 15.3, CDK5 inh 0.3, CAL PDZ FP-2 1.0 and UUG fidelity -2.7.
`CCOc1ccc(NC(=O)CN2CCN(CC(=O)Nc3ccccc3OC)CC2)cc1` gave CAL PDZ FP-1 123.2*, dFosB act -9.5, Dyrk1A ADPGlo 4.7, CDK5 inh -0.4 and UUG fidelity -5.6.
`COc1cc(C(=O)NC(c2ccccc2)c2ccccc2)cc(OC)c1OC` gave CAL PDZ FP-1 51.5*, dFosB act -4.5, Dyrk1A ADPGlo 5.4, CDK5 inh 1.9, CAL PDZ FP-2 -0.4 and UUG fidelity -14.0.
Screening COc1ccccc1NC(=O)CN1CCCCCC1 returned CAL PDZ FP-1 46.7*, dFosB act -1.9, Dyrk1A ADPGlo 0.6, CDK5 inh -0.6, CAL PDZ FP-2 -0.9 and UUG fidelity -16.5.
For CN(C)S(=O)(=O)c1ccc(NC(=O)CN2CCCCCC2)cc1 the results were CAL PDZ FP-1 132.6*, dFosB act -4.4, Dyrk1A ADPGlo 3.2, CDK5 inh 3.8, CAL PDZ FP-2 -0.3 and UUG fidelity -15.3.
For COc1cc(NC(=O)Nc2ccccc2OC)c(OC)cc1NC(=O)CN1CCCCC1 the results were CAL PDZ FP-1 -3.5, dFosB act -7.5, Dyrk1A ADPGlo -7.2, CDK5 inh 0.3 and CAL PDZ FP-2 0.5.
`CN1CCN(CC(=O)Nc2ccc(S(=O)(=O)N(C)C)cc2)CC1` gave CAL PDZ FP-1 3.8, dFosB act 1.2, Dyrk1A ADPGlo -3.2, CDK5 inh -1.4, CAL PDZ FP-2 0.8 and UUG fidelity 2.5.
For CCOc1ccc(NC(=O)CN2CCN(CC(=O)Nc3ccc(OC)cc3OC)CC2)cc1 the results were CAL PDZ FP-1 -3.1, dFosB act -5.2, Dyrk1A ADPGlo -1.9, CDK5 inh 1.6 and UUG fidelity -5.8.

No new results follow: an excerpt of the list.
`Cc1ccc(Cn2ccc(NC(=O)c3cc(-c4ccccc4)on3)n2)cc1` gave CAL PDZ FP-1 -7.3, dFosB act 10.2, Dyrk1A ADPGlo 5.6, CDK5 inh 2.4, CAL PDZ FP-2 -3.0 and UUG fidelity -8.2.
Screening COc1cccc(-c2cc(C(=O)Nc3ccn(Cc4ccc(C)cc4)n3)no2)c1 returned CAL PDZ FP-1 38.1*, dFosB act 7.9, Dyrk1A ADPGlo -6.6, CDK5 inh 2.6 and UUG fidelity -5.6.
COCC(=O)N(C)C[C@@H]1Oc2ncc(C#C[C@@H](C)O)cc2C(=O)N([C@@H](C)CO)C[C@@H]1C was read as UUG fidelity -8.2.
COc1ccccc1N(C(C)=O)c1nc(C)cc(C)c1C#N was read as CAL PDZ FP-1 30.9*, dFosB act 1.5, Dyrk1A ADPGlo 5.7, CDK5 inh 0.5, CAL PDZ FP-2 -0.8 and UUG fidelity -7.6.

Next section:
`C[C@H](NC(=O)C[C@@H]1CC[C@@H]2[C@H](COC[C@H](O)CN2C(=O)Nc2cc(Cl)cc(Cl)c2)O1)c1ccccc1` gave UUG fidelity -13.5.
For COc1ccc(C)cc1NC(=O)CNC(c1ccccc1)c1ccc(C)cc1 (configuration not stated) the results were CAL PDZ FP-1 -0.9, dFosB act 1.8, Dyrk1A ADPGlo -4.0, CDK5 inh 2.2, CAL PDZ FP-2 -0.7 and UUG fidelity 10.5.
COc1ccccc1NC(=O)Cn1c([N+](=O)[O-])cnc1C was read as CAL PDZ FP-1 63.9*, dFosB act 4.8, Dyrk1A ADPGlo 6.8, CDK5 inh -0.6, CAL PDZ FP-2 -4.4 and UUG fidelity -5.1.
For COc1cc(C(=O)NC(=S)Nc2ccc(Cl)c(C(=O)O)c2)cc(OC)c1OC the results were CAL PDZ FP-1 39.5*, dFosB act -1.4, Dyrk1A ADPGlo 8.8, CDK5 inh 0.1 and UUG fidelity 4.0.
Screening COc1cc(OC)cc(C(=O)NC(=S)Nc2ccc(Cl)c(C(=O)O)c2)c1 returned dFosB act -14.5, Dyrk1A ADPGlo 1.9, CDK5 inh -8.6, CAL PDZ FP-2 -1.0 and UUG fidelity -8.4.
Screening COc1ccccc1NC(=O)CNC(c1ccccc1)c1ccccc1 returned CAL PDZ FP-1 32.8*, dFosB act -5.8, Dyrk1A ADPGlo 3.2, CDK5 inh 0.7, CAL PDZ FP-2 2.2 and UUG fidelity 4.2.
Cc1ccccc1NC(=O)Cn1c([N+](=O)[O-])cnc1C was read as dFosB act -10.2, Dyrk1A ADPGlo 1.0, CDK5 inh -0.9, CAL PDZ FP-2 -1.1 and UUG fidelity -14.5.
